# AlphaSeq binding of Ab-14 light chain variants to a spike HR2 peptide

The target is the same throughout: PDVDLGDISGINAS, from the HR2 region of SARS-CoV-2 spike.

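Phage display of a naive human antibody library on the peptide gave the parent. Library AAYL50 holds single substitutions and randomly drawn double and triple substitutions in the CDRs. AlphaSeq pools MATa yeast showing the antibodies with MATalpha yeast showing the peptide. Binding brings cells together so that they mate, and sequencing counts the barcode pairs among the diploids. Each replicate has its own calibration line, from reference interactions of the BCL2 family. Mating was done three times.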

Parent: Ab-14, a human scFv built as VH, three GGGGS repeats, VL. Only the CDRs of the light chain vary.
VH: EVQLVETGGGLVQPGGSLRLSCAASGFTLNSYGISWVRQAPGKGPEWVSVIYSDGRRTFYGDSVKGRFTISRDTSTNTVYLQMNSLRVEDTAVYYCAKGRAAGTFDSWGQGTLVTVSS
VL: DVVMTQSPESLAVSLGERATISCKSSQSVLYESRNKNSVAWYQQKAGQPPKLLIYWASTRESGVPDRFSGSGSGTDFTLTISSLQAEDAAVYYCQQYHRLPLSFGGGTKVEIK

Positions count from residue 1 of the parent VL; S33M puts M in place of S.
The read-out is the apparent dissociation constant on a log10 scale (nM): the lower, the stronger.
A mean of the replicates is given; it leaves out those without a signal.
"ND" marks a missing value. The strain was present, yet no cells mated with the target were sequenced in that replicate, which points to weak or no binding.
Nonspecific signal, from three strains lacking the peptide, appeared in 18% of pairings of library AAYL50, centred on 4.19 (5% of these signals below 2.99); values are not corrected for it. For each scFv, signals with the empty controls are counted beside the result.

For S33M+S62G+S103G, the assay gave ND, ND, ND (controls 0 of 9).
For K24S+R34F+T59M, the assay gave 1.10, 1.11, 1.06 (mean 1.09; controls 1 of 9).
For S26R+Q27W+Q95Y, the assay gave ND, 4.75, ND (controls 2 of 9).
For K36I+V39I+L102E, the assay gave ND, ND, ND (controls 0 of 9).
For S33T+Y97K+R99C, the assay gave 1.24, 1.31, 1.36 (mean 1.30; controls 2 of 9).
For Q27K+R60I+H98T, the assay gave 3.29, ND, ND (controls 0 of 9).
For K24P+E32D+Y97Q, the assay gave ND, ND, ND (controls 0 of 9).
For S25M+N35T, the assay gave 0.02, 0.39, 0.22 (mean 0.21; controls 1 of 9).
For K36Y+A40G+R60Y, the assay gave ND, ND, ND (controls 1 of 9).
For T59E, the assay gave 4.81, ND, ND (controls 2 of 9).
For Y31P+S33G+R34P, the assay gave 0.78, 1.04, 0.95 (mean 0.92; controls 2 of 9).
For Y31C+W56G+Q95S, the assay gave 1.68, 1.90, 1.80 (mean 1.79; controls 2 of 9).
For K24F+A57G+H98C, the assay gave 1.86, 2.08, 1.73 (mean 1.89; controls 0 of 9).
For S25N+L30N+E32G, the assay gave 1.61, 1.67, 1.23 (mean 1.51; controls 0 of 9).
For K36H+E61L+S62A, the assay gave 2.16, 1.77, 1.79 (mean 1.91; controls 2 of 9).
For L30M+K36E+E61M, the assay gave 0.84, 0.87, 0.68 (mean 0.80; controls 1 of 9).
For R34F+H98Y, the assay gave 0.55, 0.79, 0.98 (mean 0.77; controls 4 of 9).
For S58K+R60C+R99P, the assay gave 3.45, ND, ND (controls 0 of 9).
For L30G+R60S+S62Q, the assay gave ND, ND, ND (controls 0 of 9).
For S26N+Q27W+T59F, the assay gave 2.04, 2.03, 2.19 (mean 2.09; controls 1 of 9).
For S33N+S62G+Q95L, the assay gave 2.07, 2.30, 2.93 (mean 2.43; controls 5 of 9).
For L30H+E32S+A40Y, the assay gave ND, ND, ND (controls 2 of 9).
For L30K+S62G+Q96R, the assay gave ND, 3.54, ND (controls 2 of 9).
For S38M+V39D+S103C, the assay gave ND, ND, ND (controls 1 of 9).
For S26I+R99A+S103D, the assay gave 4.35, 2.93, ND (mean 3.64; controls 6 of 9).
For K24H+T59I+L102S, the assay gave ND, ND, ND (controls 0 of 9).
For S58A+S62G+S103E, the assay gave ND, ND, ND (controls 3 of 9).
For W56C+Y97L+H98D, the assay gave 2.86, 2.56, 2.90 (mean 2.77; controls 5 of 9).
For V29P+S38E+S58D, the assay gave 3.11, 2.44, 2.62 (mean 2.73; controls 2 of 9).
For S26P, the assay gave 1.47, 1.67, 1.85 (mean 1.67; controls 3 of 9).
For K36P+T59H+R60F, the assay gave 4.65, ND, 4.59 (mean 4.62; controls 0 of 9).
For Y31C+S58Y+H98F, the assay gave 3.05, 2.64, 2.89 (mean 2.86; controls 2 of 9).
For V29E+S38L+L102W, the assay gave ND, ND, ND (controls 0 of 9).
For S26F+T59W+R60L, the assay gave ND, ND, ND (controls 1 of 9).
For S26R+N37A+R60K, the assay gave 2.97, 3.57, ND (mean 3.27; controls 1 of 9).
For S33Y+A57L+H98M, the assay gave ND, ND, ND (controls 2 of 9).
For Q27S+N37T+A40Y, the assay gave ND, ND, ND (controls 1 of 9).
For T59F+Q96S+Y97A, the assay gave ND, ND, ND (controls 3 of 9).
For N37S+A40P+R60D, the assay gave ND, ND, ND (controls 0 of 9).
For S25L+Y97M+H98N, the assay gave 4.93, 3.57, 4.63 (mean 4.38; controls 4 of 9).
For R34P+E61S, the assay gave ND, ND, ND (controls 0 of 9).
For S62K, the assay gave ND, ND, ND (controls 0 of 9).
For V39A+S58E+S103I, the assay gave ND, ND, ND (controls 4 of 9).
For Y31F+E32W+S33E, the assay gave 1.14, 1.11, 1.07 (mean 1.11; controls 0 of 9).
For Y31V+S58C+P101K, the assay gave 2.21, 1.84, 2.32 (mean 2.12; controls 0 of 9).
For S33H+L100S+L102F, the assay gave ND, ND, 3.73 (controls 3 of 9).
For V39E+A40S, the assay gave ND, ND, 3.53 (controls 1 of 9).
For S33G+A40R+R60M, the assay gave 3.77, 3.90, ND (mean 3.83; controls 4 of 9).
For Q27T+Y97Q+L102H, the assay gave 1.14, 1.31, 1.81 (mean 1.42; controls 5 of 9).
For S28N+V39E, the assay gave ND, ND, ND (controls 3 of 9).
For E61N+S62G, the assay gave 1.99, 1.98, 2.33 (mean 2.10; controls 5 of 9).
For Y31T+Q96V+H98W, the assay gave 0.63, 0.75, 0.89 (mean 0.76; controls 3 of 9).

Excerpt, the first 4 entries:

Variant S33M+S62G+S103G showed ND, ND, ND (controls 0 of 9).
Variant K24S+R34F+T59M showed 1.10, 1.11, 1.06 (mean 1.09; controls 1 of 9).
Variant S26R+Q27W+Q95Y showed ND, 4.75, ND (controls 2 of 9).
Variant K36I+V39I+L102E showed ND, ND, ND (controls 0 of 9).

Data: MIT Lincoln Laboratory AlphaSeq set, Engelhart et al. 2022, doi:10.1038/s41597-022-01779-4, as distributed in FLAb.